# Binding of CDR-mutated scFvs to a peptide of the spike HR2 region

The target is the same throughout: PDVDLGDISGINAS, from the HR2 region of SARS-CoV-2 spike.

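Phage display of a naive human antibody library on the peptide gave the parent. This is the validation round: designs drawn from the data on random variants, tested in the same kind of assay. Several design methods are mixed in this list. In AlphaSeq, yeast of one mating type display the scFv and yeast of the other type display the target. After mating in shaken culture at 30 °C for 16 h, diploids were selected and their barcode pairs sequenced. A regression on co-assayed BCL2-family reference pairs converts the normalised counts of each replicate to an apparent Kd. There are six technical replicates.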

Each scFv is VH, a 15-residue (Gly4Ser)3 linker, VL, as in the parent Ab-14, and differs from it in the CDRs of the light chain only.
VH: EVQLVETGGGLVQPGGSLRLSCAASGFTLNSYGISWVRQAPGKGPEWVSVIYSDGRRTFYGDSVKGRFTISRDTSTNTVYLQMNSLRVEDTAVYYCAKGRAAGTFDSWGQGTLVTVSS
VL: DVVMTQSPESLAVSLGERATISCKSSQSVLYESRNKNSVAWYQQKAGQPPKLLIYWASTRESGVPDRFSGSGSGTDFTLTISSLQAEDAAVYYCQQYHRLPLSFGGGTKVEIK

The parent's light chain CDRs are KSSQSVLYESRNKNSVA, WASTRES, QQYHRLPLS; each variant's own CDRs replace them letter for letter. Values are log10 of the apparent Kd in nM; lower means stronger binding. A mean of the replicates is given; it leaves out those without a signal. An entry "no signal" has no value in the source: the pair was not observed among the diploids in any replicate. This suggests poor binding but is not conclusive. The authors' rule: three or more of the six replicates give a measured affinity, fewer mean a poor binder.

log10 Kd (nM), mean | replicates with signal | empty controls | CDR-L1 | CDR-L2 | CDR-L3
1.46 | 6 of 6 | 2 of 18 | MISQLFMYGSRNYNSVA | QASERES | QQYDRLPLI
3.23 | 4 of 6 | 0 of 18 | HLSAMWGLESVKHNNVA | ENTTREQ | QQYDRLPLS
0.05 | 6 of 6 | 1 of 18 | KVSQSVLQQSRNSNSVA | EASTREA | QQYHRLPLS
0.54 | 6 of 6 | 0 of 18 | KVSQSFLYESRNFNSVA | GASTRES | QQYHRLPLS
-0.78 | 6 of 6 | 1 of 18 | KLYQSVGTMSHNKQNIA | DMERRED | QQYHRLPLS
0.68 | 6 of 6 | 0 of 18 | ALSINYPQQHGMNDSIA | HSDRREA | QQYYRLPLA
1.96 | 1 of 6 | 0 of 18 | QLSDLVKMESRNTNSVA | DNSTRGS | QQYDRLPLS
0.64 | 6 of 6 | 2 of 18 | KQSQSFLYESRNSNSVA | NASQREE | QQYHRLPLM
1.21 | 6 of 6 | 0 of 18 | QINMEMYHDLNDAQNVA | DAMTEIP | QQYNRLPLS
0.98 | 6 of 6 | 4 of 18 | KLRLHNLMFYQNENSIA | DVSNRAY | QQYYHLPLN
2.40 | 1 of 6 | 0 of 18 | KLRNVTGTEKVIGNNVA | EMETRER | QQYNRLPLS
0.77 | 1 of 6 | 0 of 18 | HITQSVGMTIRNKNSVA | ENSTRED | QQYDRLPLS
1.76 | 1 of 6 | 0 of 18 | KSSQSVLYTSRNQNSVA | WASTRES | YQYHRLPLS
1.78 | 6 of 6 | 1 of 18 | MMSQVTGQGTRHRNNVA | QTSEREP | QQYDRLPLI
1.46 | 6 of 6 | 2 of 18 | HISQSVGMTSRNKNSVA | ENSTRED | QQYDRLPLS
0.33 | 6 of 6 | 1 of 18 | AFTESIFYGQRDSNAIA | GADVVEK | QQYFRFPLA
1.59 | 6 of 6 | 3 of 18 | MISDTGIHDSRMQNSVA | NNSTRES | QQYHRLPLS
-0.01 | 6 of 6 | 0 of 18 | KSSDSGLYESRNKNSVA | EASTRES | QQYHRLPLS
0.50 | 6 of 6 | 0 of 18 | KITSQIREGTADNNAMA | NADVSNE | QQYSRLPLF
0.12 | 6 of 6 | 1 of 18 | KQSQSVLYESRNKNSVA | DASTRES | QQYERLPLS
-0.27 | 6 of 6 | 0 of 18 | KIMQSEYYEDRNKMSVA | DASQRLS | QQYHRLPLS
2.04 | 3 of 6 | 0 of 18 | KYSQSVLYESRNKNAVC | AASTRES | QQYHRLPLK
no signal | 0 of 6 | 0 of 18 | KSAQSVLYESRNKNSVA | WASTRES | QQYHRPPLS
0.22 | 6 of 6 | 2 of 18 | KHSQSWLYPSRNKNSVA | QASTRES | QQYHRLPLS
1.67 | 4 of 6 | 0 of 18 | KLMWSMQYLSRNKNSVA | HASYRES | QQYHRLPLS
0.88 | 6 of 6 | 0 of 18 | HIGLATMSEETVRNSVA | NNSTRED | QQYDRLPLS
-0.23 | 6 of 6 | 1 of 18 | HFSPSVLYESRNKNSVA | NASTRES | QQYHRLPLS
0.08 | 6 of 6 | 0 of 18 | KLSMVTGHMSKAKNNVA | EMETREN | QQYDRLPLS
0.51 | 6 of 6 | 1 of 18 | MISDLTMYGSRNVNSVA | DLSHRGS | QQYDRLPLS
0.27 | 6 of 6 | 2 of 18 | KLSQSELYESRNKNSVA | MASTRES | QQYHRLPLS
0.95 | 6 of 6 | 0 of 18 | KLSQSVEYESRNKNSVA | EASTRLS | QQYHRLPLS
0.50 | 6 of 6 | 0 of 18 | KLSQSVLYDSRNKNSVA | WASMRES | QQYFRLPLS
0.97 | 6 of 6 | 0 of 18 | KSGQGGLYESRNKNHVA | GASTRES | QQYHRLPLS
0.97 | 6 of 6 | 0 of 18 | IISQSFLGEYHNKNSVA | QTSERGS | QQYDHLPLS
0.21 | 6 of 6 | 1 of 18 | KSQISQWYEDRNKNSVA | SASTREH | QQYHRLPLS
0.21 | 6 of 6 | 0 of 18 | KLSQSVLYESRNKNSVA | DASTREK | QQYHRLPLS
0.39 | 6 of 6 | 1 of 18 | KLSQSWLYEARNSNSVA | NASQRED | QQYHRLPLS
-0.26 | 6 of 6 | 0 of 18 | KFSQSVLYQSRNKNSVA | EASTRES | QQYHRLPLS
-0.01 | 6 of 6 | 0 of 18 | KMFQSEGMESRNVNSVA | HASQRLD | QQYHRLPLS
0.16 | 6 of 6 | 0 of 18 | KLVMSELYESRQKNSVA | GASQREM | QQYHRLPLS
1.06 | 6 of 6 | 0 of 18 | MISQLYNMGSFAINSVA | QASERNE | QQYDRLPLI
1.21 | 6 of 6 | 1 of 18 | KLSQVTGHMQIEKNNVA | EMETREN | QQYDRLPLS
0.88 | 6 of 6 | 2 of 18 | KLSQSVNFFGHAINSVA | EMETREN | QQYDRLPLS
1.80 | 4 of 6 | 0 of 18 | NLSDGEMYHNATRSAVA | NTSMRDF | QQYNRLPLD
1.30 | 6 of 6 | 0 of 18 | KSSQSVLYESRNKNSVA | NASTRES | QQYHRLVLS
0.77 | 6 of 6 | 0 of 18 | TISQSALMTGLNRNSVA | QAEERLE | QQYHRLPLS
1.71 | 3 of 6 | 0 of 18 | KSSQSELYESRPKNSVA | WASTRES | QAYHRLPLS
0.52 | 6 of 6 | 2 of 18 | HSSPSVLYESRNKNSVA | AASTRES | QQYHRLPLS
1.29 | 6 of 6 | 0 of 18 | TLMQVGGYEMNAHNSIA | DLRTRES | QQYHRLPLS
0.29 | 6 of 6 | 1 of 18 | RLRFQDLGWSYDANNIA | GATNSIK | QQYGRLPLT
1.48 | 6 of 6 | 0 of 18 | TISQMTYWESRNKNSVA | QTSTREE | QDYDRLPLS
1.35 | 5 of 6 | 0 of 18 | KSSQSFLYESRNKNSVA | GASTRES | QTYHRLTLS
-0.91 | 6 of 6 | 1 of 18 | NASQSWLYESRNKNSVA | GGNTRES | QQYHRLPLS
0.44 | 6 of 6 | 0 of 18 | KIGMQVTYESTMNNAIA | QMTTREE | QQYHRLPLS
2.93 | 4 of 6 | 1 of 18 | QLLMATMQGTYQRNSVA | HAETRED | QSYHRLPLS
0.31 | 6 of 6 | 0 of 18 | KLYSMTGIESHAKNSLA | DANRRED | QQYHRLPLS
0.07 | 6 of 6 | 1 of 18 | KLSQSMLYESRMKNSVA | NASQRLS | QQYHRLPLS
no signal | 0 of 6 | 0 of 18 | KLSQSVLYNSANKRSVA | WASTRES | QRLHRLPLS
1.83 | 3 of 6 | 0 of 18 | IVSQMMLWGMHLKNSIA | EAQTRVN | QQYDRLPLI
0.54 | 6 of 6 | 0 of 18 | KLSQSVGYGQRNKNSVA | EASTRMS | QQYHRLPLY
0.89 | 6 of 6 | 1 of 18 | MLSQMWALGTKVKNSVA | QASMRFN | QQYERLPFM
0.51 | 6 of 6 | 0 of 18 | KLSATYRFESSNKNNIA | EMTTRES | QCYHRLPLS
0.55 | 6 of 6 | 4 of 18 | HLSQSTDLEMVHKNSIA | DLMTRES | QQYHRLPLS
0.71 | 6 of 6 | 2 of 18 | TISTSMRYESSLKNAIA | NAQERES | QQYHRLPIS
1.14 | 6 of 6 | 1 of 18 | IITQSVMQESRNKRNVA | NTSEREP | QQYDRLPLI
1.43 | 6 of 6 | 0 of 18 | KVSEFMRGLMMRKDSIA | DNNTRSN | QQYDRLPLS
-0.46 | 6 of 6 | 1 of 18 | KVSQSWLYESRNKNSVA | EASTRES | QQYHRLPLS
0.94 | 6 of 6 | 0 of 18 | KLSQSVLYESVNKNSVA | WASTRES | QQYHRDPLP
0.54 | 6 of 6 | 1 of 18 | NLSYRQFEPTGMVNSVA | QTSLRAH | QQYAHLPLC
no signal | 0 of 6 | 0 of 18 | KLSVSMVLESFHKNNVA | ENSTREE | QHYHRLPLS
0.63 | 6 of 6 | 0 of 18 | HISQMWMLESKNLNNVA | EESTRED | QSYFRLPLS
0.20 | 6 of 6 | 0 of 18 | KLQQSQLYESRNKNSVA | NASYRES | QQYHRLPLS
-0.18 | 6 of 6 | 0 of 18 | KLSQSQLYESRNKNSVA | HASQRES | QQYHRLPLS
no signal | 0 of 6 | 0 of 18 | KSSYSLLYDSRNKNSVA | WASTRES | QQYARLPLS
0.05 | 6 of 6 | 1 of 18 | KLPQEVWYQSRMKNSVA | DASTRES | QQYHRLPLS
0.20 | 6 of 6 | 0 of 18 | KIGATLNTLEHKQNNVA | DLVTREN | QQYHRLPLS
-0.06 | 6 of 6 | 1 of 18 | KVSQSKLGESRNKNSVA | NASTRED | QQYHRLPLS
0.06 | 6 of 6 | 2 of 18 | KMSQSVWYESRNKNSVA | NASTRES | QQYHRLPLS
0.89 | 6 of 6 | 0 of 18 | QLTMITGHMSVSKNNVA | EMETREN | QQYDRLPLS
1.39 | 3 of 6 | 0 of 18 | MISQLMNMGQFAINSVA | QASERHN | QQYDRLPLM

The 8 strongest on average among those seen in every replicate, once more:

CDR-L1,CDR-L2,CDR-L3,"log10 Kd (nM), mean",replicates with signal,empty controls
NASQSWLYESRNKNSVA,GGNTRES,QQYHRLPLS,-0.91,6 of 6,1 of 18
KLYQSVGTMSHNKQNIA,DMERRED,QQYHRLPLS,-0.78,6 of 6,1 of 18
KVSQSWLYESRNKNSVA,EASTRES,QQYHRLPLS,-0.46,6 of 6,1 of 18
KIMQSEYYEDRNKMSVA,DASQRLS,QQYHRLPLS,-0.27,6 of 6,0 of 18
KFSQSVLYQSRNKNSVA,EASTRES,QQYHRLPLS,-0.26,6 of 6,0 of 18
HFSPSVLYESRNKNSVA,NASTRES,QQYHRLPLS,-0.23,6 of 6,1 of 18
KLSQSQLYESRNKNSVA,HASQRES,QQYHRLPLS,-0.18,6 of 6,0 of 18
KVSQSKLGESRNKNSVA,NASTRED,QQYHRLPLS,-0.06,6 of 6,1 of 18

Background: pairings of all light chain designs with three empty control strains gave a value in 4% of cases (median 2.64, 5th percentile 1.59). Values in that range, when seen in few replicates, are hard to tell from nonspecific mating. Also given: how often the same scFv was detected with the empty control strains. The parent sequence was in this pool as ten entries: three were never detected, three once, and four in most replicates, with averages from 0.34 to 2.37. Values of this round are not directly comparable with the first-round values of the same sequences.

Source: Li et al. 2023 (doi:10.1038/s41467-023-39022-2), MIT Lincoln Laboratory and A-Alpha Bio; data file from the FLAb repository.